scFv variants of Ab-14 (light chain) against a SARS-CoV-2 spike peptide

Binding partner: SARS-CoV-2 spike HR2 peptide, sequence PDVDLGDISGINAS.

Ab-14 is the parent antibody, in scFv form: VH, then a (GGGGS)3 linker, then VL. The heavy chain is unchanged in all variants.
VH: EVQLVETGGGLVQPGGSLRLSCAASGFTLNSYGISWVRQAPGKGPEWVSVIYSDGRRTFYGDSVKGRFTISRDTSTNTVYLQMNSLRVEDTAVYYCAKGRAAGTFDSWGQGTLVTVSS
VL: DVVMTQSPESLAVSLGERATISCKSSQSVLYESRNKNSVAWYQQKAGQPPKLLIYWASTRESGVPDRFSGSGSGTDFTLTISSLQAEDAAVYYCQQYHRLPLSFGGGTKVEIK

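Variants in AAYL50 differ from the parent at up to three CDR positions; double and triple changes were sampled at random. The assay is AlphaSeq: two haploid yeast populations carry antibody and antigen on their surface. Binding brings cells together so that they mate, and sequencing counts the barcode pairs among the diploids. Each replicate has its own calibration line, from reference interactions of the BCL2 family. Each pool was mated in three replicate cultures.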

Each variant is given by its three light chain CDRs, as the data file delimits them; those of the parent are KSSQSVLYESRNKNSVA, WASTRES, QQYHRLPLS. Values are log10 of the apparent Kd in nM; lower means stronger binding. A mean of the replicates is given; it leaves out those without a signal. Where no diploid with the target was found in that replicate, the entry reads "ND": below detection, most likely a poor binder, though not proof of it. In this assay the parent's reference entry averaged 0.65; its copy inside this library read 1.68.

CDR-L1 | CDR-L2 | CDR-L3 | log10 Kd (nM) by replicate | mean log10 Kd (nM) | signal with controls
KFSQEVLYESRNKNSAA | WASTRES | QQYHRLPLS | 1.78 / 1.83 / 1.81 | 1.81 | 1/9 (3.55)
KSSQSFLFESRNKNSVA | WASTRES | QQYHNLPLS | 1.08 / 1.57 / 1.67 | 1.44 | 0/9
YSSQSVLYESRNKNSVA | WASTRES | QREHRLPLS | 2.16 / 1.95 / 2.10 | 2.07 | 5/9 (4.98)
KSSQSVLYEERNKNSVA | WASTRES | QHYHRLPLS | 1.36 / 1.45 / 1.70 | 1.50 | 1/9 (3.01)
KSSQSVYYESLNKNSNA | WASTRES | QQYHRLPLS | ND / ND / 4.81 | 4.81 | 0/9
KSSQSVLQESRNKNSVA | WASTRES | WQYHFLPLS | 5.71 / 4.40 / 2.95 | 4.35 | 2/9 (3.69)
KSSQSVLYESRNENSVT | WASTRES | QQYHRLPVS | ND / ND / ND | ND | 0/9
KSSQSVLYESRNKNSVA | WAGTRES | QQMHRLPIS | 1.81 / 1.57 / 1.77 | 1.72 | 2/9 (3.58)
KSSQSVLYESRNKNSVY | EASTRES | QQYHRLPLT | ND / ND / 4.61 | 4.61 | 0/9
KSSQSVLYESRNKLSVA | WASTRES | QQYHRLPLC | 2.66 / 1.65 / 2.04 | 2.11 | 0/9
KSSQSPLYESRNKNSVA | WASTRES | QQEHRLPLM | ND / ND / ND | ND | 1/9 (3.37)
KSGQSVLYRSRNKNSVA | TASTRES | QQYHRLPLS | 2.19 / 1.94 / 1.72 | 1.95 | 5/9 (3.71)
KSSQQVIYESRNKNSVA | WASTRES | QQYHRLPSS | ND / ND / ND | ND | 1/9 (3.49)
KSSQQVLYESRNKNGVA | WASTRES | QQYNRLPLS | 1.42 / 1.35 / 1.46 | 1.41 | 3/9 (5.71)
KCHQSVLYESRCKNSVA | WASTRES | QQYHRLPLS | 0.86 / 1.06 / 1.05 | 0.99 | 3/9 (4.79)
KSSQSVLYESRNKNSFA | KASTRES | QQYHRLPLS | 0.98 / 1.29 / 1.02 | 1.10 | 1/9 (3.32)
KSSQSVLYEMRNKNSVR | WASTRES | QQYHPLPLS | ND / ND / ND | ND | 0/9
KSSQGVLYESRNKNSVA | WASNRES | QQYHRLPLS | 1.94 / 1.98 / 1.60 | 1.84 | 3/9 (3.65)
KWSWSVLYESRNKNSVA | WASTRES | QQGHRLPLS | 2.35 / 3.53 / 2.30 | 2.73 | 2/9 (4.16)
KSSQSVIYVSRNKNSVA | WGSTRES | QQYHRLPLS | 2.03 / 1.47 / 2.60 | 2.03 | 0/9
KSSQSVLYESCNKNSVA | WASTIES | QQYHKLPLS | 4.04 / 3.41 / 3.47 | 3.64 | 3/9 (4.47)
KSSQSVLYESRNKNSVA | NASTRES | IQPHRLPLS | 0.56 / 0.59 / 0.58 | 0.57 | 2/9 (4.38)
KSSQSSMDESRNKNSVA | WASTRES | QQYHRLPLS | 2.06 / 1.99 / 2.19 | 2.08 | 1/9 (5.89)
KSSQSVLYESRNKNSVK | WASTYES | QQCHRLPLS | ND / ND / ND | ND | 1/9 (3.02)
KSSQSVGYESRNPNSVA | WASTRES | QQYHRLDLS | ND / ND / ND | ND | 0/9
KSSQSVLYESRNKPSVA | WASTRAS | QQYHRLPLM | 1.67 / 1.72 / 1.50 | 1.63 | 3/9 (3.56)
KSSQSVAFESRNKNSVA | WASTNES | QQYHRLPLS | ND / 3.03 / ND | 3.03 | 2/9 (2.90)
KSSQSVQYESREKNSVA | WASTRES | QQYSRLPLS | 0.64 / 0.84 / 0.85 | 0.78 | 2/9 (3.83)
NSSQSVLYESMNKNSVA | WASTREV | QQYHRLPLS | 0.82 / 0.89 / 0.93 | 0.88 | 3/9 (2.93)
KSSNSVLQESRHKNSVA | WASTRES | QQYHRLPLS | 0.49 / 0.83 / 0.73 | 0.68 | 2/9 (4.29)
KSSQSRLYEMRNKNSVA | WASTRES | QWYHRLPLS | ND / 3.50 / 4.05 | 3.77 | 0/9
KSSQSVLYESRNKISVK | TASTRES | QQYHRLPLS | ND / ND / ND | ND | 1/9 (3.34)
KSSQSVLYESRNKNRVA | WASTRES | QQLHRLRLS | 3.65 / 3.88 / 5.69 | 4.40 | 3/9 (4.13)
KSSQSVLYKSRNHNSVA | WASTRES | QQYHRLPAS | 3.18 / 2.65 / 3.46 | 3.10 | 5/9 (4.75)
KSSQSVLYFSRNKNSKA | WASTRES | CQYHRLPLS | ND / 3.95 / 5.94 | 4.95 | 4/9 (4.95)
KSSQSVLYESRNKSSVA | WADTRES | QQYHRLPLS | 1.47 / 1.23 / 1.59 | 1.43 | 1/9 (3.02)
KSSQSVLYESRNKNSVA | WASTRES | QEFWRLPLS | 1.64 / 1.58 / 1.46 | 1.56 | 5/9 (4.16)

The closing 6 entries, repeated:

CDR-L1 | CDR-L2 | CDR-L3 | log10 Kd (nM) by replicate | mean log10 Kd (nM) | signal with controls
KSSQSVLYESRNKISVK | TASTRES | QQYHRLPLS | ND / ND / ND | ND | 1/9 (3.34)
KSSQSVLYESRNKNRVA | WASTRES | QQLHRLRLS | 3.65 / 3.88 / 5.69 | 4.40 | 3/9 (4.13)
KSSQSVLYKSRNHNSVA | WASTRES | QQYHRLPAS | 3.18 / 2.65 / 3.46 | 3.10 | 5/9 (4.75)
KSSQSVLYFSRNKNSKA | WASTRES | CQYHRLPLS | ND / 3.95 / 5.94 | 4.95 | 4/9 (4.95)
KSSQSVLYESRNKSSVA | WADTRES | QQYHRLPLS | 1.47 / 1.23 / 1.59 | 1.43 | 1/9 (3.02)
KSSQSVLYESRNKNSVA | WASTRES | QEFWRLPLS | 1.64 / 1.58 / 1.46 | 1.56 | 5/9 (4.16)

Background: pairings of library AAYL50 with three empty control strains gave a value in 18% of cases (median 4.19, 5th percentile 2.99). Values in that range, when seen in few replicates, are hard to tell from nonspecific mating. Also given: how often the same scFv was detected with the empty control strains, with their mean in brackets.

Values reported by Engelhart et al. 2022, doi:10.1038/s41597-022-01779-4 (FLAb copy).